One data set concerns ectopic bone formation. The data set can be described thus: Ectopic bone formation, BMP-2 loaded scaffold implanted subcutaneously in rats, μCT. It counts as in vivo, rat. As to conditions: nanoLbL scaffold 5 mm x 2 mm; subcutaneous, back of adult male S.D. rats; 4 weeks. The text has this: FIG. 10. […] Micro-CT of BMP-2 loaded scaffold after four weeks implantation subcutaneously into the back of rats. One slice in cross section (A) and one slice in horizontal section (B).
Using the same nanoLbL technology, BMP-2 was loaded onto scaffolds of 5 mm diameter and 2 mm thickness. The scaffolds were implanted subcutaneously into the backs of adult male S.D. rats. After 4 weeks, the rats were sacrificed and the implants were harvested for μCT examination for bone formation inside the scaffolds.

A short description of data set [1]: In vitro release from nanoLbL-coated PLGA-collagen scaffold into PBS (UV-vis, ELISA). It counts as physicochemical. As to conditions: nanoLbL coating on PLGA-collagen scaffold; monitored up to 40 days. How it is done: Nano-Layer-by-Layer (NanoLbL) technology is used to further functionalize biodegradable scaffolds. Using this technique, surface modification of a charged template occurs via electrostatic interactions. It offers a facile method to create multifunctional nano-coatings with tunable release kinetics. A compartmentalization technique that allows for multimolecule release was used. In one example, PLGA 50:50 copolymer and collagen were dissolved in hexafluoro-2-propanol in a ratio of 7 to 1. The polymer solution was fed by syringe pump at a rate of 0.015 mL/min through a 23 gauge blunt tipped needle. A voltage of 10 kV and a working distance of 10 cm were used. The PLGA/collagen fibers were collected on square glass sheets on top of grounded aluminum foil. The fibrous scaffolds are then crosslinked in 5% genipin solution for one hour. The scaffolds were rinsed in ethanol and dried in a stream of nitrogen prior to deposition of nano-layers. Collagen, having an isoelectric point of 5.5, is negatively charged at physiologic pH, providing a charged surface upon which the nanoLbL process can proceed. Polyelectrolyte solutions of polycation poly (allylamine hydrochloride) (PAH), and the polyanion poly(acrylic acid) (PAA) were prepared in 0.15M NaCl solution at 1 mg/mL. […] For PD98059 loaded samples, release was monitored for 21 days. […]

Turning to “BMP-2: bone morphogenetic protein 2, growth factor”, the Ectopic bone formation entry with ectopic bone formation is “induces ectopic bone formation”. The “Start of release from the bottom compartment” value in data set [1] is “started after release of the inhibitors”.

The values above are taken from patent US20110038921A1, “METHODS AND COMPOSITIONS FOR TEMPORAL RELEASE OF AGENTS FROM A BIODEGRADABLE SCAFFOLD” (Clemson University Research Foundation, priority 2009, published 2011).
